Laboratory results reported in patent US8859617B2, “Use of furan alkyl for preparing an antidiabetic drug” (Laboratoires Expanscience, priority 2004, dated 2014).

How the values were obtained:
[1] = system: GSH-S-transferase (target PXR); assay: mRNA analysis in the liver (Q-RT-PCR): GSH-S-transferase; type: in vivo, mice; conditions: TZD
Procedure: the liver, the mRNA expressions of 8 genes were determined in 5 mice of each group using real-time Q-RT-PCR analysis.

mice on HF/HS diet = assay: Intraperitoneal Glucose Tolerance Test (IPGTT); type: in vivo; conditions: preventive; TZD

Structure (SMILES): CN(CCOc1ccc(CC2SC(=O)NC2=O)cc1)c1ccccn1 (centres unmarked) [TZD, Rosiglitazone]
- GSH-S-transferase (target PXR) mRNA [1]: ↑
- IPGTT Area Under Curve value (AUC) (mice on HF/HS diet): no significant AUC reduction
